Measurements from patent US11548914B2, “IL-2Rgamma binding compounds” (MEDIKINE, INC., priority 2018, dated 2023).

Assays:
[1] = biological target: IL-2 receptor subunit; settings: cells expressing IL-2 receptor subunit/β-Gal fragment constructs; read-out: IC50 of β-Gal activity generated on treatment; cited from earlier work
[2] = tested on: NK-92 cells; experiment: STAT5 phosphorylation in NK-92 cells; assay type: cell-based, human; settings: 1 μg/mL Anti-hIL-2 neutralizing antibody
Procedure: NK-92 cells were seeded in a 24-well plate at 4×10^5 cells, in 1 mL starvation medium (SM), and incubated overnight at 37° C., 5% CO2. The starvation medium contained RPMI 1640+20% FBS+2 mM L-glutamine+1 mM NaPyr+10 mM HEPES+0.1 mM BME (no rhIL-2 supplement).
Treatment mixtures were of 1 μg/mL Anti-hIL-2 neutralizing antibody (0.2 mg/mL stock) or goat IgG control (1 mg/mL stock) were prepared.
The treatment mixtures and the antibody mix were added to the cells for 30 min at 37° C., 5% CO2. Each sample was then transferred to a 1.5 mL microfuge tube and spun down at 1,500 RPM for 5 minutes. The cells were washed in 1 mL PBS and centrifuged again.
A phosphatase and protease inhibitor cocktail (Thermo #78442) were added to mPER buffer at a 1:100 dilution. After the cells were pelleted, 50 μL of mPER buffer was added to each sample and pipetted repeatedly to homogenize.
The lysates were centrifuged at 14,000 RPM for 5 min at RT. The supernatants were transferred to clean tubes and stored frozen at −80° C.
In the Western Blot shown in FIG. 1, sample numbers 1-10 were probed with an anti-pSTAT5 antibody, sample numbers 1-10 were probed with an anti-STAT5 antibody, sample numbers 11-20 were probed with an anti-pSTAT5 antibody, and sample numbers 11-20 were probed with anti-STAT5 antibody. […]

[3] = tested on: resting CD8 T-cells, resting CD4 T-cells, and resting Treg (CD25hi CD127lo) cells; experiment: pSTAT5 activation in human T-cells by flow cytometry; assay type: cell-based; settings: 30 min incubation
Procedure: pSTAT5 activation of resting CD8 T-cells, resting CD4 T-cells, and resting Treg (CD25hi CD127lo) cells by the heterodimer of Example 14 was determined using the method described in Example 17.
The incubation time was 30 min and pSTAT5 was measured by flow cytometry.

IL-2: Recombinant human Interleukin-2
IC50 [1]: ~0.026 µM | STAT5 phosphorylation with IL-2 neutralizing antibody added [2]: suppressed | potency of pSTAT5 activation across human T-cell populations [3]: potency bias for Treg and CD4 T-cells
